## AlphaSeq binding of Ab-14 light chain variants to a spike HR2 peptide

The target is the same throughout: PDVDLGDISGINAS, from the HR2 region of SARS-CoV-2 spike.

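Phage display of a naive human antibody library on the peptide gave the parent. This is the validation round: designs drawn from the data on random variants, tested in the same kind of assay. Group labels follow the data file (Ctrl: baseline library sampled from a position-specific scoring matrix, with some repeated check sequences; Rand: our label for a block that the file lists under HC and that is probably the random mutants of the ten best first-round binders; En: ensemble of fine-tuned language models; GP: Gaussian process model; HC: hill climbing; Gen: genetic algorithm; Gibbs: Gibbs sampling; a sequence that several methods proposed may carry one label only). AlphaSeq pools MATa yeast showing the antibodies with MATalpha yeast showing the peptide. After mating in shaken culture at 30 °C for 16 h, diploids were selected and their barcode pairs sequenced. A regression on co-assayed BCL2-family reference pairs converts the normalised counts of each replicate to an apparent Kd. Mating was done six times.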

Ab-14 is the parent antibody, in scFv form: VH, then three GGGGS repeats, then VL. The heavy chain is unchanged in all variants.
VH: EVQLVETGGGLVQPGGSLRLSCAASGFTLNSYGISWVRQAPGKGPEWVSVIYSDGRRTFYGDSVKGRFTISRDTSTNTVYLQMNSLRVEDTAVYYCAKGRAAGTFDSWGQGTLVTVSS
VL: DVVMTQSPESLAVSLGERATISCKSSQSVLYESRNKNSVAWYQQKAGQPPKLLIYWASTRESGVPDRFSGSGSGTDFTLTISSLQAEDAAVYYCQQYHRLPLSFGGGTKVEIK

Variants are written as CDR1, CDR2 and CDR3 of the light chain (limits as in the source). Parent: KSSQSVLYESRNKNSVA, WASTRES, QQYHRLPLS. Values are log10 of the apparent Kd in nM; lower means stronger binding. Replicates are averaged; those with no signal do not enter the mean. "ND" means that the variant was in the library but no mating with the target was seen in that replicate; the authors take this as a sign of poor binding, and no number exists. Of ten entries with the parent sequence, four were seen in most replicates (averages 0.34 to 2.37), three in one and three in none, so single entries are noisy. Background: pairings of all light chain designs with three empty control strains gave a value in 4% of cases (median 2.64, 5th percentile 1.59). Values in that range, when seen in few replicates, are hard to tell from nonspecific mating. Also given: how often the same scFv was detected with the empty control strains, with their mean in brackets. A sequence measured in both rounds can read differently, since the two assays cover different ranges. In the paper, a design with two or fewer of six values counts as a poor binder.

| CDR-L1 | CDR-L2 | CDR-L3 | group | log10 Kd, replicates | mean log10 Kd (nM) | empty controls |
|---|---|---|---|---|---|---|
| KSSQSVLYERRNKNSVA | WAATRES | QAYHRLPLS | Ctrl | ND ND ND ND ND ND | ND | 0 of 18 |
| KVSPSVLYESHNKNSVA | NASTRMS | QQYHRLPLS | GP_HC | 0.21 0.10 -0.06 0.04 -0.10 0.12 | 0.05 | 0 of 18 |
| NMNVGLNFGKIQHQAIA | EVEKRES | QQYARLPLT | En_Gibbs | 0.45 0.34 0.50 0.34 0.18 0.64 | 0.41 | 0 of 18 |
| SFSQSVLYESRTKNSQA | NASTRES | LQYHRLPLS | Rand | 2.27 2.27 2.26 1.21 3.00 1.51 | 2.09 | 2 of 18 (2.89) |
| KLSMSDLYESRNGNSVA | HASTREK | QQYHRLPLS | GP_Gibbs | -0.09 -0.22 -0.41 -0.30 -0.34 -0.02 | -0.23 | 0 of 18 |
| QFDMFEPYQGEQNASIA | GTTNRLT | QQYFKLPLS | En_Gibbs | 0.34 0.43 0.22 0.32 0.42 0.55 | 0.38 | 0 of 18 |
| FIPQSGLYDSRNDNSVA | SASTRFS | QQYHRLPLS | GP_Gibbs | -0.04 -0.06 -0.14 -0.07 -0.26 -0.05 | -0.10 | 2 of 18 (2.63) |
| NLNDGPMYQQIHMDAIA | QEAIRNA | QQYARLPLS | En_Gibbs | 2.53 1.12 1.66 2.62 1.48 2.51 | 1.99 | 0 of 18 |
| KLDMNELGQSQNSSHVA | GSANKCQ | QQYSRLPLS | En_Gibbs | 0.31 0.22 0.29 0.38 0.49 0.51 | 0.37 | 0 of 18 |
| KMSQSWLYESRNKNSVA | GASSRES | QQYHRLPLS | GP_HC | 0.03 -0.42 -0.22 -0.42 -0.06 -0.18 | -0.21 | 1 of 18 (3.14) |
| KSSQSALYESVNKNSVA | WASTRES | QQYHRLPLS | Ctrl | 1.32 2.29 1.66 1.18 1.57 1.76 | 1.63 | 0 of 18 |
| KQDQSCPGEQRNKNSVA | SASTRCE | QQYHRLPLS | GP_Gibbs | 0.21 0.03 0.33 0.16 0.07 0.37 | 0.20 | 2 of 18 (2.21) |
| KSSQQVLYESRNANSVA | WASTRES | QQYHRLPLS | Ctrl | ND ND ND ND ND ND | ND | 0 of 18 |
| KISFQYRYEQLSKDSIA | EAQTRLK | QQYHRLPLS | En_HC | ND ND ND ND ND ND | ND | 0 of 18 |
| KFSQSVLYESRNKNSVA | DASTRES | QDYHRLPLS | GP_Gen | 0.06 -0.16 -0.24 -0.15 -0.08 -0.04 | -0.10 | 1 of 18 (2.12) |
| KLSQSMLYESRNWNSVA | QASTRES | QQYHRLPLT | GP_Gibbs | 0.21 -0.20 -0.29 -0.54 -0.27 -0.11 | -0.20 | 1 of 18 (1.29) |
| TVTQMAMTGMKNKRSVA | NAETREN | QQYHRLPLI | En_Gen | 0.57 0.40 0.64 0.44 0.73 0.67 | 0.57 | 0 of 18 |
| KVSQSVVYEGRNKNSVA | HASTRED | QQYHRLPLS | GP_HC | 0.29 0.31 0.04 0.02 0.11 -0.13 | 0.11 | 1 of 18 (2.52) |
| HMSAVTMLGSRHRNSVA | QMTTREN | QQYDRLPLS | En_Gen | 1.12 1.33 1.16 0.85 1.48 1.25 | 1.20 | 2 of 18 (2.62) |
| KLPQSDLYEQRNSNSVA | NASTRFS | QQYHRLPLS | GP_Gibbs | 0.46 0.39 0.26 0.19 0.57 0.42 | 0.38 | 0 of 18 |
| KISQNMGETQRNKHSVA | EVSLVPS | QQYFRLPLS | En_HC | 1.91 2.22 1.28 1.57 1.38 1.92 | 1.71 | 0 of 18 |
| HVEHDWLLSNATMKAVA | NGATLAD | QQYGRLPLA | En_Gibbs | 0.72 0.85 0.53 0.55 0.46 0.92 | 0.67 | 0 of 18 |
| RLNCSQYDKDEHGKAIA | ADQTRMS | QQYFRLPLS | En_Gibbs | 1.02 1.45 1.28 0.95 1.31 1.34 | 1.23 | 0 of 18 |
| KIYQSVMETSRNKNNVA | EVSTLPD | QQYHRLPLS | En_HC | 0.06 -0.15 -0.14 -0.03 0.04 0.31 | 0.02 | 1 of 18 (1.71) |
| KLMQSSLYESRNKNSVA | NASTRES | QQYHRLPLS | GP_Gen | -0.02 -0.02 -0.07 0.04 0.01 0.11 | 0.01 | 1 of 18 (2.65) |
| KLEQSVLYESRNKNSVA | HASTRED | QQYHQLPLS | GP_HC | 0.07 0.00 0.12 -0.13 0.09 -0.02 | 0.02 | 1 of 18 (2.72) |
| KLSQSWPYESRNKNSVA | NASTRMS | QQYHRLPLS | GP_Gen | 0.75 0.36 0.25 0.16 0.21 0.75 | 0.41 | 2 of 18 (2.12) |
| KSDQSELQESRNQNSVA | WASTRES | QQKHRLPLS | Ctrl | ND ND ND ND ND ND | ND | 0 of 18 |
| MLLQATMYGERNRNSVA | HANTRED | QQYHRLPLI | En_HC | 1.83 1.73 ND ND 1.53 2.55 | 1.91 | 0 of 18 |
| KSSQSVLYESRNKNSVA | WASTRES | QQYVRLPLS | Ctrl | 0.26 1.31 0.44 1.71 1.48 2.42 | 1.27 | 0 of 18 |
| STFFHDDQKQEESNNIA | HASLRAV | QQYMHLPLV | En_Gibbs | 0.71 0.56 0.31 0.23 0.36 0.86 | 0.51 | 1 of 18 (2.70) |
| KSSQSVLMESRNKNSVA | GTSTRES | QQYHRLPLS | Ctrl | 0.89 0.65 0.36 0.61 0.40 0.94 | 0.64 | 2 of 18 (3.32) |
| QFSITNNQGHAMEHNIA | EGTYAEE | QQYARLPLQ | En_Gibbs | 1.55 1.31 0.50 0.95 1.67 1.67 | 1.27 | 0 of 18 |
| KFSQSVLYESRTKNSVD | NAQTRES | QQYHRLPLS | Rand | ND ND ND ND ND ND | ND | 0 of 18 |
| KSSQSVLDESWNLNSVA | WASTRES | QQIHRLPLS | Ctrl | ND 1.81 ND 4.59 2.59 2.38 | 2.84 | 1 of 18 (1.67) |
| KLTNITGTEKVKGNNVA | EMETREE | QQYNRLPLS | En_Gen | 0.60 0.70 0.28 0.39 0.40 0.49 | 0.48 | 1 of 18 (1.57) |

A selection of 5 entries from above:

| CDR-L1 | CDR-L2 | CDR-L3 | group | log10 Kd, replicates | mean log10 Kd (nM) | empty controls |
|---|---|---|---|---|---|---|
| KLDMNELGQSQNSSHVA | GSANKCQ | QQYSRLPLS | En_Gibbs | 0.31 0.22 0.29 0.38 0.49 0.51 | 0.37 | 0 of 18 |
| QFDMFEPYQGEQNASIA | GTTNRLT | QQYFKLPLS | En_Gibbs | 0.34 0.43 0.22 0.32 0.42 0.55 | 0.38 | 0 of 18 |
| KSSQSVLMESRNKNSVA | GTSTRES | QQYHRLPLS | Ctrl | 0.89 0.65 0.36 0.61 0.40 0.94 | 0.64 | 2 of 18 (3.32) |
| TVTQMAMTGMKNKRSVA | NAETREN | QQYHRLPLI | En_Gen | 0.57 0.40 0.64 0.44 0.73 0.67 | 0.57 | 0 of 18 |
| HMSAVTMLGSRHRNSVA | QMTTREN | QQYDRLPLS | En_Gen | 1.12 1.33 1.16 0.85 1.48 1.25 | 1.20 | 2 of 18 (2.62) |

The measurements come from Li et al. 2023 (doi:10.1038/s41467-023-39022-2) through the FLAb antibody collection.